Target: SARM1 (50-724) (Homo sapiens, UniProt Q6SZW1)
Assay: SARM1 (50-724) enzymatic assay (LC-MS/MS)
Details: read-out: IC50 (SARM1 inhibitory activity), Purified SARM1 (50-724) 2 nM, NMN as activator, NAD+ as substrate, 1 h at room temperature
Experimental: An enzymatic assay was performed in a 384-well plate using Dulbecco's phosphate-buffered saline (PBS) as the reaction buffer. Purified SARM1 (50-724) with a final concentration of 2 nM was pre-incubated with a test compound at […] final assay concentration for 15 min at room temperature. The reaction was initiated by adding a mixture of […] nicotinamide mononucleotide (NMN) as activator and […] NAD^+ as substrate. After 1 h of incubation at room temperature, the reaction was terminated with 10 times volume of 70% acetonitrile, and then centrifuged at 3800 rpm for 10 min. The samples were analyzed using LC-MS/MS after diluted to a proper concentration by 10 mM ammonium acetate (pH 9.75).
In Table 2, activity is provided as follows: A: IC50≤100 nM; B: 100 nM<IC50≤500 nM; C: 500 nM<IC50≤1000 nM; D: IC50>1000 nM.

By UniProt entry, the sequences of proteins in these tests, tags left out. Residues count along the entry.
UniProt Q6SZW1, 50-724 limits assumed: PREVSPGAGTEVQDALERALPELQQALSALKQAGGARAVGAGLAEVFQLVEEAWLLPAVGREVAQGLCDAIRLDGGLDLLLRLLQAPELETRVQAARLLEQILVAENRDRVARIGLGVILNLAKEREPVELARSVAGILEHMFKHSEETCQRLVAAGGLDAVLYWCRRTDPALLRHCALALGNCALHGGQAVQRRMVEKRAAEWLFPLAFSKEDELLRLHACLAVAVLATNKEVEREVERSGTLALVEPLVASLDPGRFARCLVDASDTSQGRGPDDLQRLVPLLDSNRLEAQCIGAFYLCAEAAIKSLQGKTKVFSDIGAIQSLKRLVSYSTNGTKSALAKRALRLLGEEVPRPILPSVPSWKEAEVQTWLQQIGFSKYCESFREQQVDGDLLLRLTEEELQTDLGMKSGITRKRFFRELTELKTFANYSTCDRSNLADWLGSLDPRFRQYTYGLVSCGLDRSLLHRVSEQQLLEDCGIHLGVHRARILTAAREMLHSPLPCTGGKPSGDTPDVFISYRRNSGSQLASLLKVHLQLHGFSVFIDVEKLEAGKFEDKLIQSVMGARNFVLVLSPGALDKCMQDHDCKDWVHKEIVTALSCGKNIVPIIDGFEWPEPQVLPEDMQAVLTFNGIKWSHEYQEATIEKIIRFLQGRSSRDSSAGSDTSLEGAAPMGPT

Compound	IC50 [nM]
FC(F)(F)c1ccc2[nH]c(-c3cncn3-c3cnccc3C(F)(F)F)nc2c1	< 100
Cc1c(Cl)cncc1-n1cnnc1-c1[nH]c2ccc(C(F)(F)F)cc2c1C#N	< 100
FC(F)(F)c1ccc2[nH]c(-c3nncn3-c3cnccc3C(F)(F)F)c(C3CCOC3)c2c1 (stereo not drawn)	< 100
Fc1cc(C(F)(F)F)cc2cc(-c3nncn3-c3cnccc3C(F)(F)F)[nH]c12	< 100
Cc1c(Cl)cncc1-n1cnnc1-c1[nH]c2ccc(C(F)(F)F)cc2c1C(N)=O	< 100
OC1(C#Cc2ccc3[nH]c(-c4nncn4-c4ccc(F)c(F)c4Cl)nc3c2)CC1	> 1000

Reference: patent publication US20260258064A1 (SIRONAX LTD., priority 2023, published 2026)
